# Apparent affinities of Ab-14 variants for a coronavirus HR2 peptide

Source: Engelhart et al. 2022 (doi:10.1038/s41597-022-01779-4), MIT Lincoln Laboratory and A-Alpha Bio; data file from the FLAb repository.

All variants were tested on one target, the spike HR2 peptide PDVDLGDISGINAS (SARS-CoV-2).

Parent scFv Ab-14: VH joined to VL by a 15-residue (Gly4Ser)3 linker. Changes lie in the light chain CDRs alone.
VH: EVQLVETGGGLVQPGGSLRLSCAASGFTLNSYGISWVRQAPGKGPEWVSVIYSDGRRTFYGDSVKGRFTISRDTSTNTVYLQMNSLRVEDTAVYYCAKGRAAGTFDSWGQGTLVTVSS
VL: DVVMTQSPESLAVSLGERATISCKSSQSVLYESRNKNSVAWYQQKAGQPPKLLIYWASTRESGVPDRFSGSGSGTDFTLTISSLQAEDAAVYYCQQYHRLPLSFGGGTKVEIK

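AAYL50 was designed without a model: most single CDR substitutions and a random sample of double and triple ones. AlphaSeq pools MATa yeast showing the antibodies with MATalpha yeast showing the peptide. After mating in shaken culture at 30 °C for 16 h, diploids were selected and their barcode pairs sequenced. Read counts were normalised to the haploid input and turned into Kd by a linear fit to BCL2-family pairs of known affinity, for each replicate. Mating was done three times.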

Variants are written as CDR1, CDR2 and CDR3 of the light chain (limits as in the source). Parent: KSSQSVLYESRNKNSVA, WASTRES, QQYHRLPLS.
Every variant below is changed at S26 of the VL (sequential numbering).
Affinities are written as log10 Kd with Kd in nM; a lower number is a better binder.
The mean shown is taken over the replicates in which the pair was detected.
A pair that was not seen in any replicate is written "nd"; this usually means weak binding, but a binder can also be missed.
Empty control strains, which show no peptide, gave a signal in 18% of pairings with library AAYL50; the median was 4.19 and 95% of these signals were weaker than 2.99. No background was subtracted.

For KSMQSVLYESRNKNSVA | WASTRES | AQDHRLPLS, the assay gave nd (0 of 3 replicates).
For WSGQSVLDESRNKNSVA | WASTRES | QQYHRLPLS, the assay gave 0.99 (3 of 3 replicates).
For KSFQSVLYESRNKNSVW | WKSTRES | QQYHRLPLS, the assay gave nd (0 of 3 replicates).
For KSEQSVLKLSRNKNSVA | WASTRES | QQYHRLPLS, the assay gave 1.83 (3 of 3 replicates).
For YSIQSVLYESRNKNSVA | WASTVES | QQYHRLPLS, the assay gave nd (0 of 3 replicates).
For KNWQSVLYESRNKNSVA | WASTRES | QVYHRLPLS, the assay gave 2.91 (3 of 3 replicates).
For KSLQSVLYESRNKNSVA | WASGRES | QQYHRLPLS, the assay gave nd (0 of 3 replicates).
For KSTQSVLYDSTNKNSVA | WASTRES | QQYHRLPLS, the assay gave 0.33 (3 of 3 replicates).
For KSCQSVLYESRNKNSVA | VASTRES | QQYHRLGLS, the assay gave nd (0 of 3 replicates).
For KSHQSVLYESKNKNSVA | WASTRES | QQYHRLPLS, the assay gave 1.28 (3 of 3 replicates).
For KSPQSVLYESRNKNSVA | WASTRWS | QEYHRLPLS, the assay gave 5.82 (1 of 3 replicates).
For KSLLSVLYESRNKNSVA | WASTRES | QQYHRLGLS, the assay gave 3.89 (1 of 3 replicates).
For KSMQSMLYESRNKNSVA | WASTRES | QQYHRLPLS, the assay gave 3.07 (3 of 3 replicates).
For KSPQSVLYWSRNKNSVA | WASTREP | QQYHRLPLS, the assay gave 0.94 (3 of 3 replicates).
For KIRQSVLYESRNKNSVA | WASTRES | QQYHKLPLS, the assay gave 0.15 (3 of 3 replicates).
For SSKQSVLYESRNKNNVA | WASTRES | QQYHRLPLS, the assay gave 0.71 (3 of 3 replicates).
For KSNQSVLYESRNANSVA | KASTRES | QQYHRLPLS, the assay gave 0.22 (3 of 3 replicates).
For KSTQSVLYESRVKNSVA | WASTRES | QQYHRLPLS, the assay gave 1.32 (3 of 3 replicates).
For KSLQSVLYELREKNSVA | WASTRES | QQYHRLPLS, the assay gave nd (0 of 3 replicates).
For KSVQSVLYEIRNKNSVA | WASTRES | QQYVRLPLS, the assay gave nd (0 of 3 replicates).
For KSPQSVLYESRNKMSVA | WASTRES | QQYHDLPLS, the assay gave 3.61 (1 of 3 replicates).
For KSRQSVLYESRNCNSVA | WAPTRES | QQYHRLPLS, the assay gave 3.56 (3 of 3 replicates).
For KSYQSVLYESRNKNSVA | WASWREC | QQYHRLPLS, the assay gave nd (0 of 3 replicates).
For KSQQSVLYCSRNKNSVA | WASTRES | QQYHRLTLS, the assay gave nd (0 of 3 replicates).
For KSHQSVLYESRYKNSAA | WASTRES | QQYHRLPLS, the assay gave nd (0 of 3 replicates).
For KSHQSVLYESRNKNSLA | IASTRES | QQYHRLPLS, the assay gave 3.92 (2 of 3 replicates).
For KSAQSVLYESRNKNSVA | WASKGES | QQYHRLPLS, the assay gave nd (0 of 3 replicates).
For KECQSVLYESRNKNSVA | WASTRES | QQYHRLPLS, the assay gave 1.45 (3 of 3 replicates).
For KSYQSVLYESRNKNSVA | WASFREG | QQYHRLPLS, the assay gave nd (0 of 3 replicates).
For KSKQSVLYESRNKNSYA | WASNRES | QQYHRLPLS, the assay gave 5.07 (3 of 3 replicates).
For KSDQSVLYNSRNKNSVA | WASTRES | SQYHRLPLS, the assay gave 3.78 (2 of 3 replicates).
For KSRQSVLYPSRNKNSVA | WASTRES | QQYHRLILS, the assay gave nd (0 of 3 replicates).
For KSCQSVLYESRNKNSVA | WASTWES | CQYHRLPLS, the assay gave 4.45 (2 of 3 replicates).
For KSLQSVLYESRNKNSVA | WADTRES | QQYHQLPLS, the assay gave 1.01 (3 of 3 replicates).
For KSFQSVLYESRNKHSVA | WASTRES | QQYHRLPLP, the assay gave 1.84 (3 of 3 replicates).
For KSEQSNLYESRNKNSVA | WASTRES | NQYHRLPLS, the assay gave 3.49 (3 of 3 replicates).
For KSHQSVLYESRNKSSVA | WASTRES | QQYHRLPLS, the assay gave 1.60 (3 of 3 replicates).
For KSQQSVLYEWRNKNSVA | WASTRES | QQYHRLPLI, the assay gave 1.96 (3 of 3 replicates).
For KSNQSVLYHSRNKNSVA | WASTRES | QMYHRLPLS, the assay gave 1.52 (3 of 3 replicates).
For KSWQSVLYESRNKNSVA | WASTRCS | QQYSRLPLS, the assay gave 0.83 (3 of 3 replicates).
For KSQQSVLYESRNKNSVA | IASTRES | QQYGRLPLS, the assay gave nd (0 of 3 replicates).
For KSPQSVLYESRNFNSVA | WASTRES | QQYHRLPLY, the assay gave 2.74 (3 of 3 replicates).
For KSMQSVLYESRNKNSVA | WASTRES | QQYHRLPLS, the assay gave 1.14 (3 of 3 replicates).
For KSKQSVLYESRNKNSVI | WASTRES | QQYHRLPLS, the assay gave 4.33 (1 of 3 replicates).
For KSRQSVLYEARNKNSVA | WASTRES | QQSHRLPLS, the assay gave 3.80 (1 of 3 replicates).

Repeated from above, the 6 best binders with a signal in all replicates:

CDR-L1	CDR-L2	CDR-L3	mean, log10 nM	seen in
KIRQSVLYESRNKNSVA	WASTRES	QQYHKLPLS	0.15	3 of 3
KSNQSVLYESRNANSVA	KASTRES	QQYHRLPLS	0.22	3 of 3
KSTQSVLYDSTNKNSVA	WASTRES	QQYHRLPLS	0.33	3 of 3
SSKQSVLYESRNKNNVA	WASTRES	QQYHRLPLS	0.71	3 of 3
KSWQSVLYESRNKNSVA	WASTRCS	QQYSRLPLS	0.83	3 of 3
KSPQSVLYWSRNKNSVA	WASTREP	QQYHRLPLS	0.94	3 of 3